Results as given in ChEMBL document CHEMBL4376869, “Comparison of Orexin 1 and Orexin 2 Ligand Binding Modes Using X-ray Crystallography and Computational Analysis” (J Med Chem, 2020).
pKi: −log10 of the molar value.

Amino acid sequences for entries named in this document (tags omitted).
UniProt O43614, whole entry: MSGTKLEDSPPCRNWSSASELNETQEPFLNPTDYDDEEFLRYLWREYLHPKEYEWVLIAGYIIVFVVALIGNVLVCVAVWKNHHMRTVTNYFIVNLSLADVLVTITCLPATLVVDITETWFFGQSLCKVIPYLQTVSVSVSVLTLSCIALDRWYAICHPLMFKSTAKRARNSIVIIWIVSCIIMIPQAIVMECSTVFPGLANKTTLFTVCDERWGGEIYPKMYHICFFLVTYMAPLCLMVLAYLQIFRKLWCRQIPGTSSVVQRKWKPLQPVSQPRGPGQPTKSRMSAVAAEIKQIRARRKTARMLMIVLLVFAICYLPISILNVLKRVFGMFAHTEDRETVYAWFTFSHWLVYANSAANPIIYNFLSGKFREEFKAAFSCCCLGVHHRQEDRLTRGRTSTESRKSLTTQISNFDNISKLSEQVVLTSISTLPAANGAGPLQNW

Target: Orexin receptor type 2 (Homo sapiens, UniProt O43614)
Experiment: Displacement of [3H]4-(2,6-Difluoro-4-methoxybenzyl)-2-(5,6-dimethoxypyridin-3-yl)-2H-1,2,4-benzothiadiazin-3(4H)-one 1,1-dioxide from human wild-type OX2 receptor expressed in baculovirus infected Sf21 insect cell membranes measured after 90 mins by liquid scintillation counting method

For `Cc1ncc(OC[C@@]2(c3cccc(F)c3)C[C@H]2C(=O)Nc2ccc(F)cn2)c(C)n1` [LEMBOREXANT], the pKi was 9.30.
